Source: PubChem BioAssay AID602179 (National Center for Advancing Translational Sciences (NCATS), 2012)
Several values for one entry are separate records, joined by “and”; a condition that tells them apart may be missing. Equal entries are not always repeated. Only a part is listed here, and it is no random draw. Some tests of the compounds listed are not included; inactive here does not mean inactive elsewhere. Activity calls are given as the source filed them. Calls follow the shape of the dose curve; as a rule, active = well fitted inhibition curve with a large enough effect; inconclusive = small, poorly fitted or top-dose-only effect; inactive = no such curve, though single readings can be large or run the other way.

Protein sequences, listed by entry. Tags and fused reporters are not part of them.
UniProt O75874, whole entry R132H: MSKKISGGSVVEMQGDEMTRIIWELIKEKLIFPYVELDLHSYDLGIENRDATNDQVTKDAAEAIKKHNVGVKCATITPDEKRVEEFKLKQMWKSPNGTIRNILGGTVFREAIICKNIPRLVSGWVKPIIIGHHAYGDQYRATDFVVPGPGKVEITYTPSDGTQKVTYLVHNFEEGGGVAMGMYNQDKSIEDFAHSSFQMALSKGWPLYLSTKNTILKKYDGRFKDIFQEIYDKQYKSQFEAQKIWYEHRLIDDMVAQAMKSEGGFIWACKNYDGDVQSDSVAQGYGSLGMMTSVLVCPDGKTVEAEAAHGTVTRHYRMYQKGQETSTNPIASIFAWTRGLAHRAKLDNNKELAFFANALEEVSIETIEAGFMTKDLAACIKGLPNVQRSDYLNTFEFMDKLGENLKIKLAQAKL

These compounds were tested against Isocitrate dehydrogenase [NADP] cytoplasmic (Homo sapiens) (UniProt O75874) (assay: qHTS for Inhibitors of mutant isocitrate dehydrogenase 1 (IDH1): qHTS). Details: IDH1-R132H enzyme, NADPH consumption, diaphorase/resazurin fluorescence; at 76.6 µM (top of the series).
Description: Unbiased genomic sequencing for 22 glioma genomes found recurrent mutation of isocitrate dehydrogenase 1 (IDH1) on chromosome 2q33-a gene encoding the cytosolic isoform of IIDH1associated with the tricarboxylic acid cycle (TCA) that catalyzes the oxidative decarboxylation of isocitrate, yielding alpha-ketoglutarate and CO2 via NADP+ to NADPH conversion. Subsequent studies confirmed the recurrent IDH mutations in up to 70% of secondary gliomas and in 10% of AML cases. […] This in effect defines IDH1 as an oncogene, and provides an extraordinary opportunity to discover chemical probes against mutant IDH1 that may translate into much needed new therapies for glioma and AML patients. […] NIH Chemical Genomics Center [NCGC] NIH Molecular Libraries Probe Centers Network [MLPCN] MLPCN Grant: DA032129 Assay Submitter (PI): Lenny Dang, Agios Pharmaceuticals
IDH1-R132H (0.5 ug/mL) was dispensed into black, solid-bottom 1536-well plates at 3 uL/well in 20 mM Tris-HCl (pH 7.5), 150 mM NaCl, 10 mM MgCl2, 4 mM beta-ME, and 0.05% protease-free BSA. Then, 23 nL of compounds or DMSO were delivered to each well using a pin tool. A pre-read was run on the Viewlux to identify fluorescent compounds (540 nm excitation filter, 598 nm emission filter, bodipy mirror and 2 second exposure). After 30 minutes of incubation with compound, 3 uL of substrate mix were dispensed (0.016 mM NADPH, 2 mM alpha-KG, 20 mM Tris-HCl (pH 7.5), 150 mM NaCl, 10 mM MgCl2, and 0.05% protease-free BSA). Plates were spun for 1 min at 1000xg and incubated at room temperature for 80 min. Then 1.5 uL of each detection reagent component for the coupling system were added (0.12 mg/mL diaphorase and 0.072 mM resazurin, each in 20 mM Tris-HCl (pH 7.5), 150 mM NaCl, 10 mM MgCl2, and 0.05% protease-free BSA ) The protein, substrate and two detection components were maintained at 4 °C throughout the screen. Additionally, the substrate and resazurin reagents were protected from light. The plates were measured on an Envision plate reader for fluorescence signal using a 540 nm excitation filter and 590 nm emission filter with 10 flashes. 1x and 0x (no-enzyme) IDH1-R132H enzyme control were used to normalize %Activity of identified inhibitors; 0x enzyme values corresponded to 100% Activity (full inhibition), while 1x IDH1-R132H enzyme values were used to normalize 0%Activity (no inhibition). Concentration-response curves were fitted to the signals arising from the resulting fluorescence. The concentration-effect curves were then classified based on curve quality (r2), response magnitude and degree of measured activity, and compounds were subsequently categorized based on their curve class. […] Keywords: isocitrate dehydrogenase, IDH1, IDH1-R132H, MLSMR, MLPCN, NIH Roadmap, qHTS, NCGC
Also: nearly all actives have a fitted effect of over 65% in size.

Question: Which activity change, negative = inhibition does the source give for `CN(C)C1(CNC(=O)c2ccc(Br)cc2)CCCCC1` here?
Answer: The activity change, negative = inhibition was inactive: 2.83%.

Question: With `COc1cc(C(=O)NCC2(N(C)C)CCCCC2)c([N+](=O)[O-])cc1OC` as the compound, how does the activity change, negative = inhibition read?
Answer: The activity change, negative = inhibition was inactive: -7.09%.

Question: Which activity change, negative = inhibition does the source give for `COc1ccc(C(=O)NCC2(N(C)C)CCCCC2)cc1Cl` here?
Answer: Its activity change, negative = inhibition is inactive: -7.53%.

Question: Which activity change, negative = inhibition does the source give for `COc1ccc(Cl)cc1C(=O)NCC1(N(C)C)CCCCC1` here?
Answer: The activity change, negative = inhibition was inactive: 2.36%.

Question: Which activity change, negative = inhibition does the source give for `COc1cccc(C(=O)NCC2(N3CCCCC3)CCCCC2)c1` here?
Answer: Its activity change, negative = inhibition is inactive: 17.9%.

Question: With `O=C(NCC1(N2CCCCC2)CCCCC1)c1cccc(Cl)c1` as the compound, how does the activity change, negative = inhibition read?
Answer: Its activity change, negative = inhibition is inactive: -5.4%.

Question: For `O=C(OC1CN2CCC1CC2)C(CO)(c1ccccc1)c1ccccc1` (stereo unspecified), which activity change, negative = inhibition is on record?
Answer: Its activity change, negative = inhibition is inactive: -0.976%.

Question: `COc1cccc(C(=O)NCC2(N3CCOCC3)CCCCC2)c1` was tested. Which activity change, negative = inhibition did it give?
Answer: The activity change, negative = inhibition was inactive: -3.56%.

Question: How did the activity change, negative = inhibition turn out when `CC(C)COc1ccc(C(=O)NCC2(N(C)C)CCCCC2)cc1` was run?
Answer: Its activity change, negative = inhibition is inactive: 4.25%.

Question: `COc1ccc(Br)c(C(=O)NCC2(N3CCCCC3)CCCCC2)c1` was tested. Which activity change, negative = inhibition did it give?
Answer: Its activity change, negative = inhibition is inactive: -10.5%.

Question: `COc1cc(C(=O)NCC2(N(C)C)CCCCC2)cc(OC)c1OC` was tested. Which activity change, negative = inhibition did it give?
Answer: Its activity change, negative = inhibition is inactive: 14.8%.

Question: With `Cc1cccc(C(=O)NCC2(N(C)C)CCCCC2)c1` as the compound, how does the activity change, negative = inhibition read?
Answer: The activity change, negative = inhibition was inactive: 4.49%.

Question: How did the activity change, negative = inhibition turn out when `C=C(C)C#CC(O)(C(=O)OC1CCN(C)CC1)c1ccccc1` (stereo unspecified) was run?
Answer: Its activity change, negative = inhibition is inactive: 10.2%.

Question: With `CN(C)c1cccc(C(=O)NCC2(N(C)C)CCCCC2)c1` as the compound, how does the activity change, negative = inhibition read?
Answer: The activity change, negative = inhibition was inactive: 6.71%.

Question: With `O=C(OCCN1CCCC1)C(O)(c1ccccc1)c1ccccc1` as the compound, how does the activity change, negative = inhibition read?
Answer: Its activity change, negative = inhibition is inactive: 0.178%.

Question: Which activity change, negative = inhibition does the source give for `CC(C)Oc1ccc(C(=O)NCC2(N(C)C)CCCCC2)cc1` here?
Answer: The activity change, negative = inhibition was inactive: 1.76% and inactive: 1.8%.

Question: With `O=C(NCC1(N2CCCCC2)CCCCC1)c1cc([N+](=O)[O-])ccc1Cl` as the compound, how does the activity change, negative = inhibition read?
Answer: The activity change, negative = inhibition was inactive: -2.9%.

Question: `CN1[C@@H]2CC[C@H]1CC(OC(=O)C(O)(c1ccccc1)c1ccccc1)C2` (stereo partly specified) was tested. Which activity change, negative = inhibition did it give?
Answer: Its activity change, negative = inhibition is inactive: 0.118%.

Question: Which activity change, negative = inhibition does the source give for `CC(C)N1C(=O)CC2(CCN(CCOC(=O)C(O)(c3ccccc3)c3ccccc3)CC2)C1=O` here?
Answer: The activity change, negative = inhibition was inactive: 0.51%.

Question: With `COc1cc(SC)ccc1C(=O)NCC1(N(C)C)CCCCC1` as the compound, how does the activity change, negative = inhibition read?
Answer: Its activity change, negative = inhibition is inactive: -7.44%.

Question: For `CN(C)C1(CNC(=O)c2cccc(Cl)c2)CCCCC1`, which activity change, negative = inhibition is on record?
Answer: The activity change, negative = inhibition was inactive: -7.72%.

Question: With `CCN(CC)CC(C)C(C)OC(=O)C(O)(c1ccccc1)c1ccccc1` (stereo unspecified) as the compound, how does the activity change, negative = inhibition read?
Answer: Its activity change, negative = inhibition is inactive: -2.94%.

Question: `CN(C)C1(CNC(=O)c2ccccc2F)CCCCC1` was tested. Which activity change, negative = inhibition did it give?
Answer: Its activity change, negative = inhibition is inactive: 2.19%.

Question: For `Cc1ccc(C(=O)NCC2(N3CCCCC3)CCCCC2)cc1`, which activity change, negative = inhibition is on record?
Answer: Its activity change, negative = inhibition is inactive: -2.75%.

Question: With `CN(C)C1CCCC1OC(=O)C(O)(c1ccccc1)c1ccccc1` (stereo unspecified) as the compound, how does the activity change, negative = inhibition read?
Answer: Its activity change, negative = inhibition is inactive: 4.55%.

Question: How did the activity change, negative = inhibition turn out when `CN(C)c1ccc(C(=O)NCC2(N(C)C)CCCCC2)cc1` was run?
Answer: Its activity change, negative = inhibition is inactive: -2.79%.

Question: Which activity change, negative = inhibition does the source give for `CN(C)C1(CNC(=O)c2ccccc2[N+](=O)[O-])CCCCC1` here?
Answer: The activity change, negative = inhibition was inactive: -17.2%.

Question: How did the activity change, negative = inhibition turn out when `Cc1ccccc1C(=O)NCC1(N2CCCCC2)CCCCC1` was run?
Answer: The activity change, negative = inhibition was inactive: -1.89%.

Question: Which activity change, negative = inhibition does the source give for `CCCCOc1ccccc1C(=O)NCC1(N(C)C)CCCCC1` here?
Answer: The activity change, negative = inhibition was inactive: 6.85%.

Question: Which activity change, negative = inhibition does the source give for `O=C(NCC1(N2CCCCC2)CCCCC1)c1cc(F)c(F)cc1Cl` here?
Answer: Its activity change, negative = inhibition is inactive: -0.14%.

Question: How did the activity change, negative = inhibition turn out when `C=CCN1CCN(CCOC(=O)C(O)(c2ccccc2)c2ccccc2)CC1` was run?
Answer: Its activity change, negative = inhibition is inactive: 15.8%.

Question: Which activity change, negative = inhibition does the source give for `O=C(NCC1(N2CCCCC2)CCCCC1)c1cccc(Br)c1` here?
Answer: The activity change, negative = inhibition was inactive: -24.1%.

Question: How did the activity change, negative = inhibition turn out when `Cc1cc(C(=O)NCC2(N3CCCCC3)CCCCC2)ccc1[N+](=O)[O-]` was run?
Answer: The activity change, negative = inhibition was inactive: -7.24%.

Question: With `CCN1CCCC(OC(=O)C2(O)c3ccccc3C=Cc3ccccc32)C1` (stereo unspecified) as the compound, how does the activity change, negative = inhibition read?
Answer: The activity change, negative = inhibition was inactive: 2.8%.

Question: `CCOc1cccc(C(=O)NCC2(N(C)C)CCCCC2)c1` was tested. Which activity change, negative = inhibition did it give?
Answer: The activity change, negative = inhibition was inactive: -7.24%.

Question: `COc1ccc(C(=O)NCC2(N(C)C)CCCCC2)cc1` was tested. Which activity change, negative = inhibition did it give?
Answer: Its activity change, negative = inhibition is inactive: 0.731%.
